Here are results for one substance from patent publication US6939953B2, “Leukotriene receptor” (Schering Corporation, priority 1999, dated 2005).

This test concerns the target T1, SP9030 (human leukotriene receptor, SEQ ID NO: 2) (Homo sapiens, UniProt Q9NPC1).
T1 construct: The ORF of SP9030 was cloned in the expression vector pCR3.1 (pCR3.1-SP9030); expressed in transfected cells; host or cells: COS-7 cells (membranes)
T1 sequence (Q9NPC1 1-358): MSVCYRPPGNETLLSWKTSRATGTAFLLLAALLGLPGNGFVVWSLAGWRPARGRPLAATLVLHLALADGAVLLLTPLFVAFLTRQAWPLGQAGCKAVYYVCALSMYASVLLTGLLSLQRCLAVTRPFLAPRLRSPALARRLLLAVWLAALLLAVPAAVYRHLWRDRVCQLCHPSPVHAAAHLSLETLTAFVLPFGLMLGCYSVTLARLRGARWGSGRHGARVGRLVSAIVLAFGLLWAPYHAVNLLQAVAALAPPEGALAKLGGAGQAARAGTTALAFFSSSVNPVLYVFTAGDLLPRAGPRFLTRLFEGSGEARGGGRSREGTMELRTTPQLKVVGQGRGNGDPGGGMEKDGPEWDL
As to the kind of experiment: Saturation radioligand binding assay with ^3H-LTB4 on membranes of COS-7 cells transfected with pCR3.1-SP9030. The following applies: COS-7 membranes, n=3. As for the experimental part: COS-7 cells, grown in DMEM/10% FCS until 80-90% confluence, were transfected with SuperFect agent (Giagene) at 20 μg DNA/150 mm plate. Forty eight hours after transfection, medium was changed to Opti-MEM or DMEM/Opti-MEM(1:1)/5% FCS. Cells were harvested 72 hours after transfection and membranes from the cells were prepared as follows. The cells were washed with 20 ml PBS without Ca^2+/Mg^2+ and incubated with 10 ml […] Hepes pH 7.4, 0.5 mM PMSF, 20 μg/ml aprotinin. The cells were scraped off the plate and vortexed. The cell suspension was then centrifuged at 13,000 g at 4° C. for 15 min. The pellets were re-suspended in 1.8 ml 50 mM Tris-Cl, pH 7.5 and vortexed. The membranes were homogenized with a 23-gauge needle. The protein concentration of the membrane preparations was determined with the BCA agents (Pierce).
Radioligand binding assays were performed to test the ability of SP9030, when expressed in cultured cells, to bind ^3H-labeled leukotriene. The ORF of SP9030 was cloned in the expression vector pCR3.1 (pCR3.1-SP9030). COS-7 cells were transfected with pCR3.1-SP9030 or pCR3.1 alone (mock transfection). […]
The reactions were incubated for 1 hour at 4° C. while rotated slowly. […] Fifty microliters of scintillation fluid was added to the filters and counted to detect the bound radioligands. […]

Turning to ^3H-leukotriene B4 [^3H-LTB4], the “Bmax (saturation radioligand binding)” value stood at 70 ± 8 fmol/mg. This substance returned a Kd (1 hour at 4° C.) of 0.17 ± 0.07 nM.

A word on the Kd: it is the free concentration of one partner at which half of the binding sites on the other are occupied at equilibrium, for simple one-to-one binding. Read a high Kd as a looser complex.
